The target in the test is Her2 (human epidermal growth factor receptor 2) on tumor cells (human) (UniProt P04626). Kind of test: cell-based or functional assay.

Regarding “Monoclonal antibody Herceptin (from Roche)”, the EC50 of activation of Jurkat T cells with NFAT RE luciferase reporter in the presence of target cells came to 9.91 pM.

Values taken from US20210371526A1.
